SMILES strings stand for the structures. Only a part is listed here, and it is no random draw. Some salts and complexes are drawn in separate pieces, as the source files them; their charges need not balance. Active and inactive are the calls of the source. Calls follow the shape of the dose curve; as a rule, active = well fitted activation curve with a large enough effect; inconclusive = small, poorly fitted or top-dose-only effect; inactive = no such curve, though single readings can be large or run the other way.

Amino acid sequences for entries named in this document (tags omitted).
UniProt O95398, whole entry: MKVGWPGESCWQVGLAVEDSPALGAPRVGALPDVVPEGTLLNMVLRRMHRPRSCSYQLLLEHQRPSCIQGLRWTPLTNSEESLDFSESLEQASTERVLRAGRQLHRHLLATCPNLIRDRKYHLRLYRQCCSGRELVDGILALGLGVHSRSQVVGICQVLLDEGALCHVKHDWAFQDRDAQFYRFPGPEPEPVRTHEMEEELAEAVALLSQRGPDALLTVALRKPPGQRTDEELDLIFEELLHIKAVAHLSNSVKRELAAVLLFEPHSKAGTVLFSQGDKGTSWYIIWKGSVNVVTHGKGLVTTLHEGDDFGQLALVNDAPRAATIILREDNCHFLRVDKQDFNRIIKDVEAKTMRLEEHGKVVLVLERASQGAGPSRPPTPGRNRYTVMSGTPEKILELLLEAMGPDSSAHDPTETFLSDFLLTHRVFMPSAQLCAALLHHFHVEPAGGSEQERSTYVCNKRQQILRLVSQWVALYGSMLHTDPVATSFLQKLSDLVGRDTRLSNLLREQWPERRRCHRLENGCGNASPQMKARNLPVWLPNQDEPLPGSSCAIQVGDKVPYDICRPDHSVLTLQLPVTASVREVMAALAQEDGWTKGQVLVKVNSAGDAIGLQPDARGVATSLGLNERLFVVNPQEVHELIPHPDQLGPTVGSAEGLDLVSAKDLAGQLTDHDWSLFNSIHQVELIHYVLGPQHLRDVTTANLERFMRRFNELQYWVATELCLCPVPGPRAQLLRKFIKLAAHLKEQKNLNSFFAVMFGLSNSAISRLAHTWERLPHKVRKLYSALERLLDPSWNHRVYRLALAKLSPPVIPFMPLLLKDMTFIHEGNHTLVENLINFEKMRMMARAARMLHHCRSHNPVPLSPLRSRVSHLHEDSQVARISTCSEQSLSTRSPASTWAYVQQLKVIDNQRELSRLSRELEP

In this experiment the target is Rap guanine nucleotide exchange factor 3 (Homo sapiens) (UniProt O95398). In words: qHTS for Agonist of cAMP-regulated guanine nucleotide exchange factor 3 (EPAC1): primary screen. Also: nearly all actives have a fitted effect of over 60% in size. Particulars: biochemical assay; at 154 µM (top of the series), 100% = response to 6.5 mM cAMP unless noted. The source says: In multi-cellular eukaryotic organisms, the effects of cAMP are transduced by two ubiquitously-expressed intracellular cAMP receptors, the classic protein kinase A/cAMP-dependent protein kinase (PKA/cAPK) and the more recently discovered exchange protein directly activated by cAMP/cAMP-regulated guanine nucleotide exchange factor (EPAC/cAMP-GEF). Both PKA and EPAC are ubiquitously expressed in all tissues, and an increase in intracellular cAMP levels will lead to the activation of both PKA and EPAC. Therefore, careful dissections of the individual role and relative contribution of EPAC and PKA within the overall cAMP signaling in various model systems are critical for further elucidating the mechanism of cAMP signaling. To date no EPAC-specific antagonists and agonist, as well as isoform-specific agonists have been reported, and developing EPAC-specific pharmacological probes to determine the physiological functions that EPAC play in the overall cAMP-mediated signaling remains a major challenge within the research field. Furthermore, identified regulators of EPAC may lead to new mechanism-based therapeutic strategies specifically targeting the EPAC / cAMP-signaling components as EPAC has been implicated to play important roles in major human pathological conditions such as diabetes, heart disease, and cancer.
This qHTS will be used to screen the Molecular Libraries Small Molecule Repository (MLSMR) as a concentration-titration series using the NCGC unique quantitative screening (qHTS) platform to find activators for EPAC1. In addition, this assay will also be used as a counterscreen for the EPAC2 qHTS. This fluorescent based assay is developed and validated for EPAC1 that measures exchange using EPAC effector Rap1 complex with BODIPY-GDP, a GDP analog with a tethered fluorophores. Activators are identified by monitoring the change in fluorescence signal as the exchanged free BODIPY-GDP has a reduced fluorescence compared to Rap1-bound BODIPY-GDP. Increase in signal (activation) is the desired outcome for the EPAC1 agonist while no activity in this assay is desired for the EPAC2 agonist counterscreen.
[1] de Rooij, J., Zwartkruis, F. J., Verheijen, M. H., Cool, R. H., Nijman, S. M., Wittinghofer, A., and Bos, J.L. (1998) Nature 396, 474-477
NIH Chemical Genomics Center [NCGC]
NIH Molecular Libraries Probe Centers Network [MLPCN]
Assay Submitter (PI): Xiaodong Cheng, The University of Texas Medical Branch
Briefly, three uL of reagents (100 nM EPAC1, 250 nM RAP1B-BODIPY-GDP, 50 uM GDP) were dispensed into a 1536-well Greiner black solid-bottom medium binding assay plate. Controls and test compounds (23 nL) were transferred to the plate via a Kalypsys pin tool equipped with a 1536-pin array. The plates were centrifuged at 1,000 rpm for 15 seconds followed by 5 minute incubation at room temperature. The assay plates were read at 5 minute intervals for 30 minutes in the ViewLux plate reader using 480nm excitation and 540nm emission filters. The results were normalized to the agonist positive control of 6.5 mM cAMP.
In general terms: Quantitative high-throughput screening tests each substance at several concentrations.
Turning to `O=C(NCC1(N2CCOCC2)CCCCC1)c1cc(=O)[nH]c2ccccc12`, the activation was inactive: 17.2%.

For the molecule `COc1cc(C(=O)NCC2(N3CCCCC3)CCCCC2)ccc1OC(F)F`, the activation was inactive: -7.51%.

On to `CCCCn1nnnc1C(c1cccc2ccccc12)N1CCC(n2c(=O)[nH]c3ccccc32)CC1` (stereo not given), for which the activation is inactive: 2.59%.

Consider `COc1ccc(NC2CCN(C(=O)OC(C)(C)C)CC2)cc1`, for which the activation was inactive: 3.67%.

As for `CC(C)c1ccc(C(=O)NCC2(N3CCOCC3)CCCCC2)cc1`, the activation is inactive: 2.92%.

In the case of `CN1CCN(CCOC(=O)C(O)(c2ccccc2)c2ccccc2)CC1`, the activation was inactive: 5.41%.

As for `CCCCn1nnnc1C(c1ccccc1OC(F)(F)F)N1CCC(n2c(=O)[nH]c3ccccc32)CC1` (stereo not given), the activation is inactive: -18.7%.

With `CC(C)c1ccc(NC2CCN(C(=O)OC(C)(C)C)CC2)cc1`, the activation is inactive: -13.4%.

For the molecule `CN(C)c1cccc(C(=O)NCC2(N3CCCCC3)CCCCC2)c1`, the activation is inactive: -6.07%.

On to `O=[N+]([O-])c1cc([N+](=O)[O-])c(OC2CCCCC2O)c([N+](=O)[O-])c1` (stereo not given), for which the activation was inactive: -4.4%.

With `COc1ccc(CN(CCCl)CCCl)cc1Cl`, the activation was inactive: -7.02%.

In the case of `CCN(CC)CCCNc1ccccc1[N+](=O)[O-].O=[N+]([O-])c1cc([N+](=O)[O-])c(O)c([N+](=O)[O-])c1`, the activation was inactive: 13.3% [at 76.9 µM].

As for `CCC(c1nnnn1C(C)(C)C)N1CCC(n2c(=O)[nH]c3ccccc32)CC1` (stereo not given), the activation was inactive: -7.4%.

As to `O=C(NCC1(N2CCOCC2)CCCCC1)c1cc(F)c(F)cc1Cl`, the activation is inactive: -1.71%.

On to `COc1cc(OC)c(C(=O)NCC2(N(C)C)CCCCC2)cc1OC`, for which the activation is inactive: 3.38%.

As to `CCCCn1nnnc1C(c1ccnc2ccccc12)N1CCC(n2c(=O)[nH]c3ccccc32)CC1` (stereo not given), the activation is inactive: -3.05%.

Consider `O=C(OC1CN2CCC1CC2)c1ccc([N+](=O)[O-])cc1` (stereo not given), for which the activation is inactive: -0.902%.

As for `O=C(NCC1(N2CCCCC2)CCCCC1)c1cncc(Br)c1`, the activation is inactive: 9.57%.

In the case of `COc1ccc2c(c1O)-c1c(O)c(OC)cc3c1[C@H](C2)[N+](C)(C)CC3.O=[N+]([O-])c1cc([N+](=O)[O-])c([O-])c([N+](=O)[O-])c1[O-]`, the activation was inactive: -1.66%.

On to `CN1CCC(Nc2cccc(F)c2)CC1`, for which the activation is inactive: -1.7%.

Consider `COc1ccc(C(c2nnnn2C2CCCC2)N2CCC(n3c(=O)[nH]c4ccccc43)CC2)cc1` (stereo not given), for which the activation was inactive: -4.16%.

For the molecule `O=[N+]([O-])c1cc([N+](=O)[O-])c(Nc2ccc(Cl)cc2)c([N+](=O)[O-])c1`, the activation is inactive: 12.1%.

For `CCCOc1ccc(C(=O)NCC2(N(C)C)CCCCC2)cc1OC`, the activation was inactive: 6.19%.

For `Cc1ccc(C(=O)NCC2(N(C)C)CCCCC2)o1`, the activation is inactive: -13.1%.

With `COc1cc(C(=O)NCC2(N3CCOCC3)CCCCC2)cc(OC)c1C`, the activation is inactive: 3.69%.

For `CCCCn1nnnc1C(c1ccccc1)N1CCC(n2c(=O)[nH]c3ccccc32)CC1` (stereo not given), the activation is inactive: -4.47%.

For the molecule `O=C(NCC1(N2CCOCC2)CCCCC1)c1cc(Br)ccc1Cl`, the activation is inactive: -0.583%.

As for `O=c1[nH]c2ccccc2n1C1CCN(C(c2cccs2)c2nnnn2C2CCCCC2)CC1` (stereo not given), the activation is inactive: 7.58%.

Turning to `O=c1[nH]c2ccccc2n1C1CCN(C(c2ccnc3ccccc23)c2nnnn2C2CCCC2)CC1` (stereo not given), the activation is inactive: 10.1%.

`COc1ccc(C(=O)NCC2(N3CCOCC3)CCCCC2)cc1OC`: the activation is inactive: -3.4%.

As for `COc1cccc(C(c2nnnn2C(C)(C)C)N2CCC(n3c(=O)[nH]c4ccccc43)CC2)c1OC` (stereo not given), the activation is inactive: 16.2%.

As for `CCOC(=O)N1CCC(Nc2ccc(C)cc2)CC1`, the activation was inactive: -2.96%.

Consider `N/C(=N\O)c1c(N)no[n+]1[O-]`, for which the activation is inactive: -3.48%.

Take `O=c1[nH]c2ccccc2n1C1CCN(C(c2cccs2)c2nnnn2C2CCCC2)CC1` (stereo not given): the activation was inactive: 0.502%.

Turning to `O=C(O)c1cccc(Nc2c([N+](=O)[O-])cc([N+](=O)[O-])cc2[N+](=O)[O-])c1`, the activation was inactive: 7.39%.

On to `O=C(OC1CN2CCC1CC2)C1c2ccccc2C=Cc2ccccc21` (stereo not given), for which the activation was inactive: -8.56%.

Take `CCc1cc(C(=O)NCC2(N3CCCCC3)CCCCC2)sc1C`: the activation is inactive: -4.05%.

Turning to `CCCCn1nnnc1C(c1cccc(OC)c1OC)N1CCC(n2c(=O)[nH]c3ccccc32)CC1` (stereo not given), the activation is inactive: -0.629%.

Consider `N#Cc1ccc(C(=O)NCC2(N3CCCCC3)CCCCC2)cc1`, for which the activation is inactive: 1.24%.

Consider `CC(C)(C)OC(=O)N1CCC(N(C(=O)c2ccccc2)c2ccc(Cl)cc2)CC1`, for which the activation was inactive: -14.4%.

On to `CCOC(=O)C(CC)C1=NC(C)(C)Cc2ccccc21.O=[N+]([O-])c1cc([N+](=O)[O-])c(O)c([N+](=O)[O-])c1` (stereo not given), for which the activation is inactive: 8.89%.

For the molecule `CN(C)C1(CNC(=O)c2cccc(C#N)c2)CCCCC1`, the activation is inactive: -4.85%.

As to `CCCN1CCC(Nc2cc(OC)cc(OC)c2)CC1`, the activation is inactive: 2.93%.

In the case of `O=c1[nH]c2ccccc2n1C1CCN(C(c2ccccc2)c2nnnn2C2CCCC2)CC1` (stereo not given), the activation is inactive: 5.34%.

As to `Cc1cc(N(CCCl)CCCl)ccc1C=O`, the activation is inactive: -9.45%.
